Molecular target: Carbonic anhydrase 2 (Homo sapiens, UniProt P00918)
Experiment: Inhibition of human carbonic anhydrase 2 esterase activity by spectrophotometry

`CC(=O)Oc1ccccc1C(=O)O` [ASPIRIN] showed an IC50 of 1160 µM.
